The list shows a part of the results, in another mix than the full data. The source made the active and inactive calls.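 Rule for the calls: active = inhibition above the mean of compounds lying between control limits plus 3 SD, set per campaign (cut at about 8.5% in these data); inactive = the rest.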
Each molecule was assayed against Disintegrin and metalloproteinase domain-containing protein 17 (Homo sapiens) (UniProt P78536) (assay: inhibition of ADAM17 peptide cleavage – biochemical, QFRET, primary screen (AID 720648;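 note: 0% = DMSO-only wells as the low control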)). Details: recombinant ADAM17, EDANS/DABCYL FRET peptide cleavage; at 6.95 µM; active compounds read high.

Amino acid sequences for entries named in this document (tags omitted). A change or cut given only in a name is not applied to a line headed by its entry.
UniProt P78536: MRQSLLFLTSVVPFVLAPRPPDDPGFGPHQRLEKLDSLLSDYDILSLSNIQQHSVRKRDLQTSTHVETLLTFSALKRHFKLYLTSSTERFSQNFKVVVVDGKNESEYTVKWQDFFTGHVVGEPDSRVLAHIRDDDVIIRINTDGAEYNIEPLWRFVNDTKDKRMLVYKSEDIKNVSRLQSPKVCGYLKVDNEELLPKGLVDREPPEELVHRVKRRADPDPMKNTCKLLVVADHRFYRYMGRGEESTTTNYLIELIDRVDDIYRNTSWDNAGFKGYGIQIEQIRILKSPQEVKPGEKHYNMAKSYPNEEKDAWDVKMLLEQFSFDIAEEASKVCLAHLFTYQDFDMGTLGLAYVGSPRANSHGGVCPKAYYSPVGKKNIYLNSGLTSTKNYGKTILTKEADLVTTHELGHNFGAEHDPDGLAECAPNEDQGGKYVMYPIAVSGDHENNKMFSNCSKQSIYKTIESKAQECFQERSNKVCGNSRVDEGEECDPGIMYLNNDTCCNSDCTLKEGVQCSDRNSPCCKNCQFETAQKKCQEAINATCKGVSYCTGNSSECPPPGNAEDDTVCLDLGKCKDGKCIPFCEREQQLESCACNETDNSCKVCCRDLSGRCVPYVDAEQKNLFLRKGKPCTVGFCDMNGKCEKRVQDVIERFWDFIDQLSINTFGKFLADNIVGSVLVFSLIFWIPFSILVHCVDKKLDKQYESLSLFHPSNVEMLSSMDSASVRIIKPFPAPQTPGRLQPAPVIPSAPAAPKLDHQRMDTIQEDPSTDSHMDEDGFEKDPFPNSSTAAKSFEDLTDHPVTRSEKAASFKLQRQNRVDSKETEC

Row | SMILES | inhibition
1 | ClCCSc1nnc(-c2cccnc2)o1 | inactive: -3.71%
2 | CC(C)c1ccc(OP(=O)(Nc2ccccn2)Oc2ccccc2F)cc1 (centres undefined) | inactive: -4.08%
3 | COC(=O)C1(C)COP(=O)(N2CCCCCC2)OC1 (centres undefined) | inactive: -2.87%
4 | CCN(CC)C(=S)SC(NC=O)C(Cl)(Cl)Cl (centres undefined) | inactive: -2.23%
5 | O=C(OC1CN2CCC1CC2)c1cccc2[nH]cnc12 (centres undefined) | inactive: -13.2%
6 | CC(C)NC(=O)NP(=O)(Oc1ccccc1)Oc1ccccc1 | inactive: -3.82%
7 | C[As](=O)(O)c1cccc(C(=O)O)c1 | inactive: -0.18%
8 | O=[As](O)(c1ccc(O)cc1)c1ccccc1O | inactive: -3.86%
9 | COc1cc(C(=O)NCC2(N3CCOCC3)CCCCC2)ccc1OCC(C)C | inactive: -4.17%
10 | O=[N+]([O-])c1ccc(-c2cc([N+](=O)[O-])c(O)c([N+](=O)[O-])c2)cc1 | inactive: 3.14%
11 | [N-]=[N+]=NC1CCCCC1NC(=O)c1cc([N+](=O)[O-])cc([N+](=O)[O-])c1 (centres undefined) | inactive: -1.97%
12 | Cc1ccc(OP(=O)(Nc2ccc([N+](=O)[O-])cn2)Oc2ccc(C)cc2)cc1 | inactive: -2.49%
13 | Cc1ccc2nc3c(c(C)c2c1)CC(C(Cl)Cl)S3 (centres undefined) | inactive: -5.95%
14 | O=[N+]([O-])c1cc(Oc2ccc([N+](=O)[O-])cc2C(F)(F)F)cc([N+](=O)[O-])c1 | inactive: -0.8%
15 | COc1ccc(N/C(=N/P(=O)(N2CCOCC2)N2CCOCC2)N2CCOCC2)cc1 | inactive: -6.35%
16 | Cc1c2c(nc3ccccc13)SC(C(Cl)Cl)C2 (centres undefined) | inactive: -0.72%
17 | O=C(OC1CN2CCC1CC2)C12CC3CC(CC(C3)C1)C2 (centres undefined) | inactive: 1.33%
18 | Cc1cc(=O)[nH]c(N[N+](=O)[O-])n1 | inactive: -1.31%
19 | O=P1(N(CCCl)CCCl)OCCCN1CCCl (centres undefined) | inactive: -3.74%
20 | O=P1(N(CCCl)CCCl)Nc2ccccc2N1 | inactive: -10.6%
21 | COc1ccc2nc(NP(=O)(c3ccccc3)c3ccccc3)sc2c1 | inactive: -1.42%
22 | COc1cc(I)ccc1[As](=O)(O)O | inactive: -0.64%

Row | SMILES | inhibition
23 | O=C(OC1CN2CCC1CC2)c1cccc([N+](=O)[O-])c1 (centres undefined) | inactive: -6.09%
24 | CCOC(=O)c1ccc(NC(=O)C(C)(CCl)SC)cc1 (centres undefined) | inactive: -2.98%
25 | CCC(C)N(CC(C)C)C(=S)SC(NC(C)=O)C(Cl)(Cl)Cl (centres undefined) | inactive: -6.73%
26 | COP1(=S)c2c(C)nn(CCC#N)c2N=C(c2ccc(F)cc2)N1C (centres undefined) | inactive: 0.44%
27 | COC(=O)C1(C)COP(=O)(N2CCCC2)OC1 (centres undefined) | inactive: 2.35%
28 | O=C(O)C(=O)c1ccc(N(CCCl)CCCl)cc1 | inactive: -2.3%
29 | O=C(COc1ccccc1)OC1CN2CCC1CC2 (centres undefined) | inactive: -2.66%
30 | O=C(Nc1ccncc1[N+](=O)[O-])c1ccc([N+](=O)[O-])cc1[N+](=O)[O-] | inactive: -3.97%
31 | CCOC(=O)Nc1cccc([As](=O)(O)O)c1 | inactive: -2.43%
32 | O=P(Nc1ccccn1)(c1cccc2ccccc12)c1cccc2ccccc12 | inactive: -6.23%
33 | Cc1cc(SC(NC=O)C(Cl)(Cl)Cl)ncn1 (centres undefined) | inactive: -3.02%
34 | O=[N+]([O-])c1ccc(Nc2ccc(Oc3ccc([N+](=O)[O-])cc3[N+](=O)[O-])cc2)c([N+](=O)[O-])c1 | inactive: -1.31%
35 | CCOC(=O)Nc1ccc([As](=O)(O)O)c(O)c1 | inactive: -2.33%
36 | O=C(O)C(O)c1ccc(N(CCCl)CCCl)cc1 (centres undefined) | inactive: -2.74%
37 | CC1CCNP(=O)(N(CCCl)CCCl)O1 (centres undefined) | inactive: 5.53%
38 | COP(=O)(OC)N1CC1c1ccccc1 (centres undefined) | inactive: 0.98%
39 | CCCCOc1ccc(C(=O)NCC2(N3CCCCC3)CCCCC2)cc1OC | inactive: -0.01%
40 | Cc1cc(SC(NC(=O)c2ccccc2)C(Cl)(Cl)Cl)nc(C(C)C)n1 (centres undefined) | inactive: 0.86%
41 | Cc1ccc(S(=O)(=O)N(CCCN)CCCc2c(C)nc(N)[nH]c2=O)cc1 | inactive: 0.81%
42 | O=P1(Nc2ncccn2)COc2ccccc2OC1 | inactive: -1.66%
43 | Nc1cccc([As](=O)(O)c2ccccc2)c1 | inactive: 1.19%
44 | O=P1(Nc2ccc(Br)cn2)COc2ccccc2OC1 | inactive: -0.26%

Row | SMILES | inhibition
45 | NS(=O)(=O)c1cccc(NC(=O)COC(=O)C(O)(c2ccccc2)c2ccccc2)c1 | inactive: 2.79%
46 | Cc1ccc(OCC(=O)OC2CN3CCC2CC3)cc1 (centres undefined) | inactive: -3.01%
47 | O=[As](O)(c1cccs1)c1cccs1 | inactive: -8.35%
48 | Cc1nn(-c2ccccc2)c2c1P(=O)(N1CCOCC1)N(C)C(c1ccccc1)=N2 (centres undefined) | inactive: -1.54%
49 | CC1CCC(C(C)C)C(OP(=O)(Nc2ccccn2)c2ccccc2)C1 (centres undefined) | inactive: 1.17%
50 | Cc1ccc(C(=O)OC2CN3CCC2CC3)cc1 (centres undefined) | inactive: -0.78%
51 | CN(C)C1(CNC(=O)c2ccc(S(C)(=O)=O)cc2)CCCCC1 | inactive: -5.5%
52 | O=C(/C=C/c1ccccc1)OC1CN2CCC1CC2 (centres undefined) | inactive: 0.92%
53 | CCCC1OP(=O)(Nc2ccccc2)OCC1CC (centres undefined) | inactive: -2.24%
54 | COc1ccccc1CNC(=O)COC(=O)C(O)(c1ccccc1)c1ccccc1 | inactive: 0.81%
55 | CC(C)/C=N\N=C(\N)N[N+](=O)[O-] | inactive: -2.38%
56 | CN(C(=O)Cc1ccc(Cl)c(Cl)c1)[C@@H]1CCCC[C@H]1N1CCCC1 | inactive: -5.7%
57 | CN(C(=O)Cc1ccc(Cl)c(Cl)c1)C1CCCC[C@@H]1N1CCCC1 (some centres undefined) | inactive: -0.63%
58 | CC1(CBr)Cn2c(nc3ccccc3c2=O)S1 (centres undefined) | inactive: -4.16%
59 | O=P1(Nc2ccccn2)COc2ccccc2OC1 | inactive: -3.27%
60 | CCC1=CC2Cc3nc4ccc(Cl)cc4c(N)c3C(C1)C2 (centres undefined) | inactive: -6.83%
61 | CCOP(=O)(NC(=NC(C)c1ccccc1)NC(C)c1ccccc1)OCC (centres undefined) | inactive: -1.72%
62 | CN(CCCl)Cc1cc(Cl)c(NC2=NCCN2)c(Cl)c1 | inactive: -3.98%
63 | CCOP(=O)(Nc1ccc(C)cn1)OCC | inactive: -3.84%
64 | O=P1(N(CCCl)CCCl)NCCC(C(F)(F)F)O1 (centres undefined) | inactive: 0.91%

Reference: PubChem BioAssay AID720648 (The Scripps Research Institute Molecular Screening Center, 2013)
